Values quoted from earlier work, collected in US20120145955A1, “COMPOSITION OF HCFO-1233zd AND POLYOL BLENDS FOR USE IN POLYURETHANE FOAM” (Arkema Inc., priority 2009, published 2012).

Conditions: known to the people skilled in the art; cited from earlier work

CC(F)(Cl)Cl [HCFC141b]
solubility in polyols: much more soluble
